What was measured:
[1] = system: normal mouse fibroblast (BALB/3T3) cell line; assay: in vitro cytotoxicity, SRB assay, normal BALB/3T3; type: cell-based; settings: compound concentration 10 μg/mL
Protocol: The cytotoxicity of the investigated complexes 1–3 was determined by microculture with sulforhodamine B SRB (all adherent cells) and MTT ([3-(4,5-dimethyl(thiazol-2-yl) -2,5-diphenyltetrazoliumbromide)]) (for cells in suspension (leukemia cells)) assays with the following three tumor cell lines: colorectal adenoma (LoVo), myelomonocytic leukemia (MV-4-11), and breast adenocarcinoma (MCF-7), as well as a healthy mouse fibroblast (BALB/3T3) cell line. The cytotoxicity of the compounds was measured using the methods described previously. The in vitro cytotoxic activity results were presented as the percentage of inhibition of cell proliferation by the tested compounds or DMSO, which was used as a solvent (at a concentration of 10 µg/mL of the tested compound was 0.1% DMSO). The results for cisplatin, used as a test control, were presented in the form of IC50 value (this is the concentration of the compound causing the inhibition of cell proliferation of 50% of the cell population). The results were calculated from 2 to 3 independent experiments.

[2] = system: normal mouse fibroblast (BALB/3T3) cell line; settings: cited from earlier work

Substance	Cell viability [%] BALB/3T3 [1]	cytotoxicity against BALB/3T3, times lower compared with cisplatin [2]
[(η^6-p-cymene)RuCl(py2CO)]PF6 [complex 1]	99%	–
[(η^6-p-cymene)RuCl(2,2′-PyBIm)]PF6	–	15 times
